Test results as given in PubChem BioAssay AID651800 (The Scripps Research Institute Molecular Screening Center, 2012).
Only a part is listed here, and it is no random draw. Some salts or complexes appear as unconnected parts, following the source record. Active and inactive are the calls of the source. Rule as the data show it: active = inhibition above about 19%; inactive = the rest.

test system: T-cell receptor (TCR); test: small molecules blocking TCR binding to CD3 – biochemical, fluorescence, TAMRA-labeled TCR probe, primary screen (AID 651800); settings: at 9.4 µM, hits give high values;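 also: recombinant mutant TCR 2C K166C tagged with TAMRA read by polarization; 0% = receptor in buffer alone and 100% = receptor with positive control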

SMILES	inhibition
COc1ccc(OP(C)(=O)Nc2cccc(Br)c2)cc1 (centres undefined)	inactive: 0.48%
COc1ccc(NP(C)(=O)Oc2ccccc2OC)cc1 (centres undefined)	inactive: 3.88%
CN(C)CCOC(=O)C(O)(c1ccccc1)C1CCCCC1 (centres undefined)	inactive: -1.27%
Cc1cc(-c2cccc3ccccc23)c(C)cn1.O=[N+]([O-])c1cc([N+](=O)[O-])c(O)c([N+](=O)[O-])c1	inactive: 1.65%
O=[N+]([O-])c1cc([N+](=O)[O-])c(NCC2CCS(=O)(=O)C2)c([N+](=O)[O-])c1 (centres undefined)	inactive: -0.68%
O=[N+]([O-])c1ccc(OP2(=O)COCCO2)cc1 (centres undefined)	inactive: 9.56%
Cc1c(C(c2ccc3c(c2)OCO3)c2c(C)n(C)n(-c3ccccc3)c2=O)c(=O)n(-c2ccccc2)n1C.O=[N+]([O-])c1cc([N+](=O)[O-])c(O)c([N+](=O)[O-])c1	inactive: -2.78%
CP(=O)(Nc1ccc(SC(F)(F)F)cc1)Oc1ccc(F)cc1 (centres undefined)	inactive: 7.52%
CCOP(=O)(CC)OCC	inactive: -4.27%
CCOP(C)(=S)SCC(=O)NC(C)(CC)C(=O)O (centres undefined)	inactive: 0.03%
CP(=O)(Nc1ccc2c(c1)OCCO2)Oc1ccccc1 (centres undefined)	inactive: -7.26%
O=[N+]([O-])c1cc([N+](=O)[O-])c(C(F)(F)F)c([N+](=O)[O-])c1O	inactive: -0.01%
Cc1ccccc1NP(C)(=O)Nc1ccccc1C	inactive: 8.52%
O=[N+]([O-])c1cc([N+](=O)[O-])c(Nc2ccc(Cl)cc2)c([N+](=O)[O-])c1	inactive: 8.18%
CC(C)c1ccc(OP(C)(=O)Nc2ccc(SC(F)(F)F)cc2)cc1 (centres undefined)	inactive: 13.2%
CP(=O)(Nc1ccccc1F)Oc1ccccc1 (centres undefined)	inactive: -5.46%
O=C(OCCN1CCN(CCOCc2ccccc2)CC1)C(O)(c1ccccc1)c1ccccc1	inactive: 0.38%
O=C(OC1CN2CCC1CC2)c1ccc([N+](=O)[O-])cc1 (centres undefined)	inactive: -15.5%
COc1ccc2c(c1O)-c1c(O)c(OC)cc3c1[C@H](C2)[N+](C)(C)CC3.O=[N+]([O-])c1cc([N+](=O)[O-])c([O-])c([N+](=O)[O-])c1[O-]	inactive: 1.86%
CCN(CC)CCCNc1ccccc1[N+](=O)[O-].O=[N+]([O-])c1cc([N+](=O)[O-])c(O)c([N+](=O)[O-])c1	inactive: -2.42%

SMILES	inhibition
COc1ccc(OP(C)(=O)Nc2ccc(SC(F)(F)F)cc2)cc1 (centres undefined)	inactive: 9.05%
CCOC(=O)c1ccc(NP(C)(=O)Oc2ccc(F)cc2)cc1 (centres undefined)	inactive: -1.27%
CCN(CC)CCCOC(=O)C(O)(c1ccccc1)C1CCCCC1 (centres undefined)	inactive: -6.39%
Cc1c([N+](=O)[O-])cc([N+](=O)[O-])c(Br)c1[N+](=O)[O-]	inactive: 7.14%
CCCCCOc1ccc(NP(C)(=O)Oc2ccc(Cl)cc2Cl)cc1 (centres undefined)	inactive: -4.68%
O=[N+]([O-])c1cc([N+](=O)[O-])c(OC2CCCCC2O)c([N+](=O)[O-])c1 (centres undefined)	inactive: -5.7%
CP(=O)(Nc1ccccc1)Oc1ccc(F)cc1 (centres undefined)	inactive: 4.02%
Cc1cc(C)cc(OP(C)(=O)Nc2cccc(C(F)(F)F)c2)c1 (centres undefined)	inactive: -0.2%
O=C1C(O)=C([N+](=O)[O-])C(=O)C(O)=C1[N+](=O)[O-]	inactive: 12.5%
COc1ccc(OP(C)(=O)Nc2ccccc2Br)cc1 (centres undefined)	inactive: -4.6%
COc1ccccc1OP(C)(=O)Nc1ccc(C)c(C)c1 (centres undefined)	inactive: -5.88%
CP(=O)(OCCOc1ccccc1)OCCOc1ccccc1	inactive: -7.03%
CCCCCCCCCCCCCCCC1C[N+](C)(C)CCOP(C)(=O)O1 (centres undefined)	inactive: 3.97%
CP(=O)(Nc1ccc(Cl)cc1Cl)Oc1ccccc1 (centres undefined)	inactive: -4.14%
COc1ccccc1OP(C)(=O)Nc1ccc(Br)cc1 (centres undefined)	inactive: 5.29%
CN(C)CCOC(=O)C(O)(c1ccccc1)C1CCCC1 (centres undefined)	inactive: 5.67%
COc1ccc(OP(C)(=O)Nc2ccccn2)cc1 (centres undefined)	inactive: -3.24%
O=[N+]([O-])c1cc([N+](=O)[O-])c(Nc2ccccn2)c([N+](=O)[O-])c1	inactive: 5.51%
Cc1c(NP(C)(=O)Oc2ccc(C(C)C)cc2)c(=O)n(-c2ccccc2)n1C (centres undefined)	inactive: -1.25%
CCc1ccc(OP(C)(=O)O)cc1	inactive: -4.75%

SMILES	inhibition
COc1ccccc1OP(C)(=O)Nc1ccc(C)cc1C (centres undefined)	inactive: -0.91%
CP(=O)(Nc1ccccn1)Oc1ccccc1 (centres undefined)	inactive: 2.22%
COc1ccc(OP(C)(=O)Nc2ccc(Br)cc2)cc1 (centres undefined)	inactive: 2.49%
CCN(CC)CC(O)COC(=O)C(O)(c1ccccc1)C1CCCCC1 (centres undefined)	inactive: 4.31%
CCc1ccc(OP(C)(=O)Nc2cccnc2)cc1 (centres undefined)	inactive: -4.37%
CP(=O)(Oc1ccccc1)N1CCOC1=O (centres undefined)	inactive: 5.61%
O=C(OCCCN1CCCC1)C(O)(c1ccccc1)C1CCCCC1 (centres undefined)	inactive: -5.71%
COc1ccccc1OP(C)(=O)Nc1c(C)n(C)n(-c2ccccc2)c1=O (centres undefined)	inactive: -2.3%
CP(=O)(Nc1ccc(Cl)cc1)Oc1ccc(F)cc1 (centres undefined)	inactive: -2.54%
CC(C)(C)c1ccc(OP(C)(=O)O)cc1	inactive: 1.21%
COc1ccccc1OP(C)(=O)Nc1ccccc1Br (centres undefined)	inactive: 2.08%
CN(C)C(=O)c1c([N+](=O)[O-])cc([N+](=O)[O-])cc1[N+](=O)[O-]	inactive: 2.4%
Nc1ccc2c(ccc3cccnc32)n1.O=[N+]([O-])c1cc([N+](=O)[O-])c(O)c([N+](=O)[O-])c1	inactive: 1.87%
CP(=O)(OC12CC3CC(CC(C3)C1)C2)OC12CC3CC(CC(C3)C1)C2	inactive: -2.79%
CCOC(=O)c1ccc(NP(C)(=O)Oc2ccc(Cl)cc2)cc1 (centres undefined)	inactive: 0.41%
CP(=S)(Nn1cnnc1)Oc1ccccc1 (centres undefined)	inactive: 6.28%
COc1ccccc1OP(C)(=O)Nc1ccccc1 (centres undefined)	inactive: -3.59%
CP(=O)(Nc1ccccc1Br)Oc1ccccc1 (centres undefined)	inactive: -2.79%
CP(=O)(Oc1ccccc1)OC(c1ccccc1)C(F)(F)F (centres undefined)	inactive: 3.51%
